Test system: dog liver microsomes (CYP2D15, CYP3A12, CYP2C21/41)
Type: in vitro ADME, Beagle dog
Conditions: 100 μM quinidine, 10 μM CIT, n = 5

In the case of `C=C[C@H]1C[N@@]2CC[C@H]1C[C@@H]2[C@@H](O)c1ccnc2ccc(OC)cc12` [quinidine], the “difference in the production of R-DCIT from CIT in comparison to absence of the inhibitor” value is reported as 24.5 ± 11.4 pmol/(min × mg protein).

Reference: paper PMC10581520 (Veterinární Medicína, 2023)
